Drawing on patent US6525059B1, “Substituted pyrazoles as p38 kinase inhibitors” (G. D. Searle & Company, priority 1998, dated 2003), this text covers IC50 for two molecules.

Each structure is given as a SMILES string. Bounds are passed on as bounds.

The experiment concerns TNF-α. Kind of experiment: LPS stimulation of TNF production by U937 cells. Format: cell-based. The following applies: read-out: U937 Cell IC50, LPS-stimulated human U937 cells.

On to `CCN(CC)C(=O)NCc1[nH]nc(-c2ccc(F)cc2)c1-c1ccncc1`, for which the IC50 (as a rule, the point on the concentration scale where inhibition reaches its midpoint) is greater than 1000 nM.

On to `O=C(NCc1[nH]nc(-c2ccc(F)cc2)c1-c1ccncc1)N1CCOCC1`, for which the half-inhibitory concentration (IC50) was greater than 1000 nM.
